Apparent affinities of Ab-95 variants for a coronavirus HR2 peptide

All variants were tested on one target, the spike HR2 peptide PDVDLGDISGINAS (SARS-CoV-2).

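The starting antibody came from a phage panning campaign against this peptide. The library (AAYL52) carries one to three amino acid substitutions per variant, with no insertions or deletions. Affinity was read by AlphaSeq, a pooled yeast mating assay with surface-displayed partners. The frequency of each diploid, read from paired DNA barcodes, reflects how well the two displayed proteins bind. Read counts were normalised to the haploid input and turned into Kd by a linear fit to BCL2-family pairs of known affinity, for each replicate. There are three technical replicates.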

The variants keep the heavy chain, the linker and the frameworks of Ab-95 (scFv order VH, the linker GGGGSGGGGSGGGGS, VL).
VH: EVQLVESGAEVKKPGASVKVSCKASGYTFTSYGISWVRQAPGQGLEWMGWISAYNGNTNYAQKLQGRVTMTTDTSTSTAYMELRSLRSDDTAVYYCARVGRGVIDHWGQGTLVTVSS
VL: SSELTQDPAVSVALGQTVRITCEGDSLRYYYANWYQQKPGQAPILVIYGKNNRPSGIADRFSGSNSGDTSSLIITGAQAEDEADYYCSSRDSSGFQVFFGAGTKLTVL

Variants are written as CDR1, CDR2 and CDR3 of the light chain (limits as in the source). Parent: EGDSLRYYYAN, GKNNRPS, SSRDSSGFQVF.
Affinities are written as log10 Kd with Kd in nM; a lower number is a better binder.
A pair that was not seen in that replicate is written "nd"; this usually means weak binding, but a binder can also be missed.
As a blank, each scFv also met three strains without target: over library AAYL52, 28% of these pairings were detected, typically at 3.91 and seldom below 2.90. Also given: how often the same scFv was detected with the empty control strains, with their mean in brackets.

| CDR-L1 | CDR-L2 | CDR-L3 | log10 Kd, replicates | empty controls |
|---|---|---|---|---|
| EGDHLRYYYAN | GKNKRPS | SSRDSSKFQVF | nd 3.42 nd | 1 of 9 (3.42) |
| EGDSLRYYYAW | GKENRPS | SPRDSSGFQVF | 4.79 nd nd | 2 of 9 (4.04) |
| YGDALRYYYAN | GKNNRPS | SSRDSKGFQVF | 4.24 3.02 3.17 | 3 of 9 (4.03) |
| EGDSLRYYAAC | GKNNRPS | RSRDSSGFQVF | 4.01 4.40 4.46 | 6 of 9 (3.77) |
| EGRSLRVYYAN | GKNNRPS | SSRLSSGFQVF | 3.72 nd 3.26 | 4 of 9 (3.50) |
| ESDSLRYYYAN | GKNDRPS | VSRDSSGFQVF | 2.56 3.11 2.02 | 3 of 9 (3.14) |
| EGDSLRCESAN | GKNNRPS | SSRDSSGFQVF | 1.80 1.59 1.36 | 2 of 9 (4.25) |
| QGDSLRYYYAN | GQNNRPN | SSRDSSGFQVF | 1.41 1.31 0.95 | 5 of 9 (4.54) |
| EGDSLRYYLAN | GKNHRPS | SSRDSSYFQVF | 2.91 nd 2.49 | 3 of 9 (4.23) |
| PGDSLRYYYAN | GKNNRDS | SSRDSSGFQVQ | nd 3.77 4.79 | 3 of 9 (4.00) |
| EGDSLRYYYDN | GKNNRPS | SSRKSFGFQVF | nd nd nd | 4 of 9 (3.86) |
| NGDSLRMYYAN | GKNNRPS | SSRDSSGFQVE | 2.58 3.06 3.32 | 4 of 9 (3.48) |
| ERDSLRYYYAN | GKNNRPS | SSADSSGFQVF | 4.99 nd nd | 3 of 9 (4.10) |
| EGDSLIYYYAN | GKSNRPS | SSRDSSGFQVF | 2.93 3.28 2.60 | 1 of 9 (4.54) |
| EFDSLRYYYLN | GKNNRPS | SSRDSSGFQVM | 3.09 3.62 nd | 2 of 9 (2.95) |
| WGDSLRYYYAN | GKNNRPS | SSPDFSGFQVF | nd 4.17 3.86 | 2 of 9 (3.23) |
| EIDSLRYYYAN | GKNNRPW | SSRDSGGFQVF | 4.19 nd nd | 4 of 9 (3.91) |
| EGDSLRYYTIN | GKNNRPS | SSRDSSGFQVF | 3.18 nd 4.16 | 3 of 9 (3.88) |
| EGDSQRYLYAN | GKNNRPS | SSRDSSGFIVF | 2.99 nd 3.00 | 2 of 9 (4.06) |
| EGDHLRGYYAN | GKNNFPS | SSRDSSGFQVF | 3.96 5.84 3.71 | 4 of 9 (4.25) |
| EGDSLRYYYAN | GKNRRPS | SSRDSSGNIVF | 2.40 2.68 nd | 2 of 9 (3.42) |
| EGDSLRYYCAN | GKNNRPS | SVRDSSGFQEF | 2.78 2.22 2.41 | 3 of 9 (4.10) |
| EGDSLRYYQAN | GWNNRPS | SERDSSGFQVF | nd nd nd | 0 of 9 |
| EGDSLRYYYAN | NKNNRPS | QSRDSSGFCVF | nd nd nd | 1 of 9 (3.16) |
| EGDSLRYYYAN | GKNNRPH | SIRDSSGSQVF | 4.47 3.34 nd | 1 of 9 (2.98) |
| KGDSLRYYYAN | GKNNRPS | CSRDSSGFQWF | nd nd nd | 0 of 9 |
| EYDSLRYYYAN | FKNNRPS | SYRDSSGFQVF | 3.91 3.53 nd | 3 of 9 (3.92) |
| EGDSLRYYYAN | GKNYRPM | SSRDSSQFQVF | 3.50 5.75 3.56 | 5 of 9 (3.76) |
| EGDSLRYYYAF | GKNNRPG | SSRHSSGFQVF | 2.21 1.90 1.77 | 6 of 9 (4.21) |
| EGDSLRYYYAN | GKNNRPS | SSRDSGGFVVF | 3.20 nd 3.61 | 3 of 9 (3.68) |
| EGDSLRYYYAN | GKLNRPS | SSRFSSFFQVF | 4.55 3.10 3.27 | 1 of 9 (3.23) |
| DGDSLRYYYAN | GKNNRPS | ASRHSSGFQVF | 4.07 3.28 4.46 | 5 of 9 (4.07) |
| EADSLRYYYAN | GKNNRPS | SNRDSSLFQVF | 3.96 nd nd | 2 of 9 (4.71) |
| EGDSLVYYYSN | GKNNRPS | SSTDSSGFQVF | 5.59 nd nd | 3 of 9 (3.18) |
| EGDSLRYYSAQ | GKNNRPS | SKRDSSGFQVF | 2.60 3.36 3.13 | 2 of 9 (3.66) |
| ERDSLRYYYAN | GKNNRPI | SSRDSPGFQVF | 3.57 4.15 3.62 | 2 of 9 (3.91) |
| EGDSLRYYYAN | GYNNRPS | SSRDSSQFQVF | nd 3.05 nd | 1 of 9 (4.92) |
| EGDSLRYYYAY | GKNNRPS | SRRGSSGFQVF | 3.85 nd nd | 1 of 9 (3.71) |
| EGDSLRYWYAN | VKNNRPE | SSRDSSGFQVF | nd 5.68 nd | 2 of 9 (4.33) |
| EGDSLRYYYAN | GKNVRPS | SSRCSSGFQVF | 2.39 2.89 3.62 | 4 of 9 (4.00) |

The closing 4 entries, repeated:

{"CDR-L1": "EGDSLRYYYAN", "CDR-L2": "GYNNRPS", "CDR-L3": "SSRDSSQFQVF", "log10 Kd, replicates": "nd 3.05 nd", "empty controls": "1 of 9 (4.92)"}
{"CDR-L1": "EGDSLRYYYAY", "CDR-L2": "GKNNRPS", "CDR-L3": "SRRGSSGFQVF", "log10 Kd, replicates": "3.85 nd nd", "empty controls": "1 of 9 (3.71)"}
{"CDR-L1": "EGDSLRYWYAN", "CDR-L2": "VKNNRPE", "CDR-L3": "SSRDSSGFQVF", "log10 Kd, replicates": "nd 5.68 nd", "empty controls": "2 of 9 (4.33)"}
{"CDR-L1": "EGDSLRYYYAN", "CDR-L2": "GKNVRPS", "CDR-L3": "SSRCSSGFQVF", "log10 Kd, replicates": "2.39 2.89 3.62", "empty controls": "4 of 9 (4.00)"}

In this assay the parent's reference entry averaged 2.31; its copy inside this library read 2.25.

From the AlphaSeq antibody data of Engelhart et al. 2022 (doi:10.1038/s41597-022-01779-4), copy in the FLAb collection.